Data published in PMC3077805.

Test system: C[S+](CC[C@H](N)C(=O)O)C[C@H]1O[C@@H](n2cnc3c(N)ncnc32)[C@H](O)[C@@H]1O
Test: purified protein

CqsA (Vibrio cholerae O1 biovar El Tor str. N16961)
Km: 28.7 µM
